Assay results from PubChem BioAssay AID1347055 (National Center for Advancing Translational Sciences (NCATS), 2019).
The list shows a part of the results, in another mix than the full data. Records with an inconclusive call do not appear. Some salts or complexes appear as unconnected parts, following the source record. Active and inactive are the calls of the source. Calls follow the shape of the dose curve; as a rule, active = well fitted inhibition curve with a large enough effect; inconclusive = small, poorly fitted or top-dose-only effect, or effect the other way; inactive = flat fitted curve, though single readings scatter.

Sequences of proteins named here, by UniProt entry; tags and fusion partners are left off.
UniProt P07954, whole entry: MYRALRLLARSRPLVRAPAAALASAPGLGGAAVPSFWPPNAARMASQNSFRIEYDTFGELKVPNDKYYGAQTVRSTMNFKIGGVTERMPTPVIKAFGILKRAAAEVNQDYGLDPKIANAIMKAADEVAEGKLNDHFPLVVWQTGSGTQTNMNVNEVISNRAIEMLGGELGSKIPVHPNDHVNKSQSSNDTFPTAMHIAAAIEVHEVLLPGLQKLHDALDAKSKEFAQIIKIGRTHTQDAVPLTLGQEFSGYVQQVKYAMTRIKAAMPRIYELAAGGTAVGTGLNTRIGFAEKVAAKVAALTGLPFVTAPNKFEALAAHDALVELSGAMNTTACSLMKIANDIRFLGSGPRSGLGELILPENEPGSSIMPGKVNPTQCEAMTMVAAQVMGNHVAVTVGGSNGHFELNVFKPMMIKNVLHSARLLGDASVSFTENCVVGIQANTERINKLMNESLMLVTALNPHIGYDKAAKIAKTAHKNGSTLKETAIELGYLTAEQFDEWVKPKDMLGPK

These compounds were tested against Fumarate hydratase, mitochondrial (Homo sapiens) (UniProt P07954) (assay: Identification of activators of human fumarate hydratase by quantitative high-throughput screening). Settings: FH coupled MDH/diaphorase resazurin fluorescence, 15 min; at 53.3 µM (top of the series) unless noted.
From the text: Fumarate hydratase (FH) is a metabolic enzyme that is part of the Krebs-cycle, and reversibly catalyzes the hydration of fumarate to malate. Mutations of the FH gene have been associated with fumarate hydratase deficiency (FHD), hereditary leiomyomatosis, renal cell cancer (HLRCC), and other diseases. Currently there are no high-quality small molecule probes for studying human fumarate hydratase. To address this, we developed a quantitative high throughput screening (qHTS) FH assay and screened a total of 57,037 compounds in dose-response. While no inhibitors of FH were confirmed, a series of phenyl-pyrrolo-pyrimidine-diones (12 compounds) were identified as activators of human fumarate hydratase. […] The binding of two compounds from the series to human fumarate hydratase was confirmed by microscale thermophoresis. The low hit rate in this screening campaign confirmed that FH is a "tough target" to modulate, and the small molecule activators of human fumarate hydratase reported here may serve as a starting point for further optimization and development into cellular probes of human FH and potential drug candidates.
For primary high-throughput screen, 3 ul of FH solution (containing 13.33nM human fumarate hydratase, 13.33IU/ml malic dehydrogenase, 0.2mM NAD, 0.067mg/ml diaphorase and 0.067mM resazurin in the assay buffer (50 mM Tris pH 8.0, 5 mM MgCl2, 0.01% Brij 3) was dispensed into each well in a black solid bottom 1536-well assay plate (Greiner Bio-One) using a BioRAPTR FRD dispenser (Beckman Coulter, Brea, CA). A 1536-well pintool dispenser outfitted with 20 nl pins (Wako Automation, San Diego, CA) was used to transfer 20 nL of DMSO-solubilized compound (Cherrypick plates) to each 1536-well assay plate. Each compound was screened at five concentrations: 15 nM, 151 nM, 1.5 uM, 15.4 uM, 76.9 uM. Following compound transfer, plates were incubated in room temperature for 10 minutes. 1 uL of substrate solution containing fumaric acid (160 uM) was dispensed via BioRAPTR FRD to initiate the reaction. Plates were immediately transferred to a ViewLux microplate imager (PerkinElmer, Waltham, MA), and any resulting resorufin fluorescence was measured (exitation/emission, 525/598 nm) at 0 and 15 minutes. The exposure time is 1 second. Fluorescence from each well was normalized using enzyme-free and DMSO-treated control wells on each plate, and changes in fluorescence (delta RFU) were calculated using the difference in fluorescent signal for each well at 15 minutes versus 0 minutes.
% is scaled to controls: 0 for no effect and ±100 for the full control effect.
Also: the screen sought activators but most active calls are inhibition curves; nearly all actives have a fitted effect of over 45% in size.

Row | SMILES | activity change, negative = inhibition
1 | C/C1=C2N=C(/C=C3N=C(/C(C)=C4\N=C(C(CC(N)=O)C4(C)CCC(=O)NCC(C)OP(=O)([O-])OC4C(CO)OC(n5cnc6cc(C)c(C)cc65)C4O)C4(C)N=C1C(CCC(N)=O)C4(C)CC(N)=O)C(CCC(N)=O)C\3(C)C)C(CCC(N)=O)C/2(C)CC(N)=O.[C-]#N.[Co] (configuration not stated) | inactive: 6.6%
2 | O=[N+]([O-])c1cccc([N+](=O)[O-])c1 | inactive: -6.05% [at 79.9 µM]
3 | CCOP(=O)(CC)Oc1ccc([N+](=O)[O-])cc1 (configuration not stated) | inactive: 9.41%
4 | Cc1cccc([N+](=O)[O-])c1[N+](=O)[O-] | inactive: -5.65% [at 79.9 µM]
5 | C/C1=C2N=C(/C=C3N=C(/C(C)=C4\[N-][C@@](C)([C@@H]5N=C1[C@](C)(CCC(=O)NC[C@@H](C)OP(=O)([O-])O[C@H]1[C@@H](O)[C@@H](n6cnc7cc(C)c(C)cc76)O[C@@H]1CO)[C@H]5CC(N)=O)[C@@](C)(CC(N)=O)[C@@H]4CCC(N)=O)[C@@](C)(CC(N)=O)[C@@H]\3CCC(N)=O)C(C)(C)[C@@H]/2CCC(N)=O.[C-]#N.[Co+3] | inactive: -1.43%
6 | OCCSCCO | inactive: 0%
7 | CC1=C2[N-][C@@](C)([C@@H]3N=C(C(C)=C4N=C(C=C5N=C1[C@@](C)(CC(N)=O)[C@H]5CCC(N)=O)C(C)(C)[C@H]4CCC(N)=O)[C@](C)(CCC(=O)NC[C@@H](C)OP(=O)([O-])O[C@H]1[C@@H](O)[C@@H](n4cnc5cc(C)c(C)cc54)O[C@H]1CO)[C@H]3CC(N)=O)[C@@](C)(CC(N)=O)[C@@H]2CCC(N)=O.[C-]#N.[Co+3] | inactive: 8.87% [at 20.6 µM]
